Patent US20040044177A1, “Peptide compounds having improved binding affinity to somatostatin receptors” (priority 2002, published 2004)

The chains behind the UniProt entries cited, without tags or fusion partners. Where a name states a change or a piece, a line headed by the entry shows the natural chain unless it says otherwise.
UniProt P35346: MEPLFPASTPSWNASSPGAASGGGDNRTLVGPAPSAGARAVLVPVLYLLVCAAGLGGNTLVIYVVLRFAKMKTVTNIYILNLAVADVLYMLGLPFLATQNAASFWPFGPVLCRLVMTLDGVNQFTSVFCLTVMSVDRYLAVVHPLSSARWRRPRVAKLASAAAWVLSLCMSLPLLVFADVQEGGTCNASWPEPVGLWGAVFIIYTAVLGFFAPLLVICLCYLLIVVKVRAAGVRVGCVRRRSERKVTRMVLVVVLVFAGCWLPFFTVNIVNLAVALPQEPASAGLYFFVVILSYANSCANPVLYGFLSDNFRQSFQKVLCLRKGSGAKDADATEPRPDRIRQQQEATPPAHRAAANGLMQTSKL

Biological target: human somatostatin receptor subtype hsst5 (Homo sapiens, UniProt P35346)
Experiment: In vitro binding affinity of peptide analogs (Table III), hsst5
Conditions: DOTA complexed with stable Y or In
Protocol: Table III, presents the binding affinity of the new compounds to human somatostatin receptor subtypes as compared to the compound, Y-DOTA-TATE, described by Srinivasan et al. (U.S. Pat. No. 5,830,431).
IC50 values were determined as described by Reubi et al. (Eur J Nuc Med 28:836-846, 2001).

IC50: 187 nM
Structure (SMILES): C[C@@H](O)[C@H](NC(=O)[C@@H]1CSSC[C@H](NC(=O)[C@@H](Cc2ccccc2)NC(=O)CN2CCN(CC(=O)O)CCN(CC(=O)O)CCN(CC(=O)O)CC2)C(=O)N[C@@H](Cc2ccc(O)cc2)C(=O)N[C@H](Cc2c[nH]c3ccccc23)C(=O)N[C@@H](CCCCN)C(=O)N[C@@H]([C@@H](C)O)C(=O)N1)C(=O)O [compound 1, reference compound]
